Test results taken from ChEMBL document CHEMBL1152684, “Antitumor antibiotic fostriecin covalently binds to cysteine-269 residue of protein phosphatase 2A catalytic subunit in mammalian cells” (Bioorg Med Chem, 2009).

What was measured:
[1] = Selectivity for protein phosphatase 2A over protein phosphatase 1
[2] = Selectivity for protein phosphatase 2A over protein phosphatase 5
[3] = Selectivity for protein phosphatase 2A over protein phosphatase 2B

Work on `C[C@@](O)(/C=C/[C@H]1CC=CC(=O)O1)[C@@H](C[C@@H](O)\C=C/C=C\C=C\CO)OP(=O)(O)O` [FOSTRIECIN] yielded a Ratio IC50 [1] greater than 100000, a Selectivity ratio [2] greater than 100000 and a Selectivity ratio [3] greater than 1e+06.
